Measurements as given in patent US10617743B2, “Method to improve safety and efficacy of anti-cancer therapy” (CLS Therapeutics Limited, priority 2014, dated 2020).

Columns and labels:
[1] = Acute doxorubicin toxicity in rats: body weight of surviving rats; conditions: Doxorubicin 3.75 mg/kg, DNase I 15 mg/kg/day IP
[2] = Acute doxorubicin toxicity in rats: blood cell counts and blood biochemistry; conditions: surviving rats; Doxorubicin 3.75 mg/kg; DNase I 15 mg/kg/day IP

B1: human recombinant DNase I: human recombinant DNase I (Pharmsynthez OJSC), deoxyribonuclease enzyme (protein, UniProt P24855 23-282, looked up)
Deoxyribonuclease-1: LKIAAFNIQTFGETKMSNATLVSYIVQILSRYDIALVQEVRDSHLTAVGKLLDNLNQDAPDTYHYVVSEPLGRNSYKERYLFVYRPDQVSAVDSYYYDDGCEPCGNDTFNREPAIVRFFSRFTEVREFAIVPLHAAPGDAVAEIDALYDVYLDVQEKWGLEDVMLMGDFNAGCSYVRPSQWSSIRLWTSPTFQWLIPDSADTTATPTHCAYDRIVVAGMLLRGAVVPDSALPFNFQAAYGLSDQLAQAISDHYPVEVMLK
For B1, the “Effect on body weight loss after acute doxorubicin challenge” value [1] was “ameliorates body weight loss” and the “Effect on bone marrow toxicity and catabolic changes in blood biochemistry” value [2] was “ameliorates bone marrow toxicity and catabolic changes in blood biochemistry”.
